Assay results from paper PMC3787694 (Biochimica et biophysica acta, 2010).
Where two headings read alike, the source gives them in different places.

Chains of the proteins cited; added tags and fusions are not shown. Lines headed by an entry give the natural chain unless they say otherwise; changes in a name come on top. Residues count along the entry.
UniProt P02710, 25-461: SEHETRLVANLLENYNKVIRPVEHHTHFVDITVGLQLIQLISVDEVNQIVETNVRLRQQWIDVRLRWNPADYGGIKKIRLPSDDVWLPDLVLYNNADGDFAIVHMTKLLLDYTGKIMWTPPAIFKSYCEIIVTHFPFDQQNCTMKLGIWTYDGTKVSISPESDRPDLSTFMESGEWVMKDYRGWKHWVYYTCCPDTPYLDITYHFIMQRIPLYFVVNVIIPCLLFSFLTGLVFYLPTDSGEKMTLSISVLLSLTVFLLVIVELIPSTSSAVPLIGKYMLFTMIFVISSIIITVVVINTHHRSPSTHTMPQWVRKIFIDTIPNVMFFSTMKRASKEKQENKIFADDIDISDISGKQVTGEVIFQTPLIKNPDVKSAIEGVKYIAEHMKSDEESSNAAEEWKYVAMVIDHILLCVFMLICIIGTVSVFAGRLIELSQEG
UniProt P02712, 25-493: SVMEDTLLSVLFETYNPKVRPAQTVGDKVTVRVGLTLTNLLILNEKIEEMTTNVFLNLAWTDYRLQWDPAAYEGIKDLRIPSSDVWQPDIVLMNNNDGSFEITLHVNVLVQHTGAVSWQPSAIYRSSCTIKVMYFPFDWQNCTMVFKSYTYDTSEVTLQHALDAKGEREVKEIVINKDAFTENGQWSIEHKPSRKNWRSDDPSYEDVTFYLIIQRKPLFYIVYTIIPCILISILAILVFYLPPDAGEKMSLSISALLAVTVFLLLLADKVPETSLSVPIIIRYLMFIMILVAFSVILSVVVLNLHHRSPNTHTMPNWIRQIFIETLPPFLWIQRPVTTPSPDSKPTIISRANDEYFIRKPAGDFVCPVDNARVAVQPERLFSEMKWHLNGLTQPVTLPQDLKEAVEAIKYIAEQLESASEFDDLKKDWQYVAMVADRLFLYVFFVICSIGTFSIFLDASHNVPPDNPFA
UniProt P02714, 18-506: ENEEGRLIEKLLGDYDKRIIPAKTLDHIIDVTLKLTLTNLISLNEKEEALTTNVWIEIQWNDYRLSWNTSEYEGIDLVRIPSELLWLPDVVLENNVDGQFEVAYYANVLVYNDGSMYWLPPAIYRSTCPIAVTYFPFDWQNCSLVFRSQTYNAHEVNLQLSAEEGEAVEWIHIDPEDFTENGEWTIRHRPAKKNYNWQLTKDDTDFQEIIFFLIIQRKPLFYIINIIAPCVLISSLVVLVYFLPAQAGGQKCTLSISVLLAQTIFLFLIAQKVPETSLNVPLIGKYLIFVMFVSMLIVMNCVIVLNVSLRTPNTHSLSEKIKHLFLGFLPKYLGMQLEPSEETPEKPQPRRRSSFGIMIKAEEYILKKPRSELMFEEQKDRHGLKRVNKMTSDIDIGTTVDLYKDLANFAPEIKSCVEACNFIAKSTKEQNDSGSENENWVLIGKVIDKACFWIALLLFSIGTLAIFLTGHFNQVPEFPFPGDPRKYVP
UniProt P02718, 22-522: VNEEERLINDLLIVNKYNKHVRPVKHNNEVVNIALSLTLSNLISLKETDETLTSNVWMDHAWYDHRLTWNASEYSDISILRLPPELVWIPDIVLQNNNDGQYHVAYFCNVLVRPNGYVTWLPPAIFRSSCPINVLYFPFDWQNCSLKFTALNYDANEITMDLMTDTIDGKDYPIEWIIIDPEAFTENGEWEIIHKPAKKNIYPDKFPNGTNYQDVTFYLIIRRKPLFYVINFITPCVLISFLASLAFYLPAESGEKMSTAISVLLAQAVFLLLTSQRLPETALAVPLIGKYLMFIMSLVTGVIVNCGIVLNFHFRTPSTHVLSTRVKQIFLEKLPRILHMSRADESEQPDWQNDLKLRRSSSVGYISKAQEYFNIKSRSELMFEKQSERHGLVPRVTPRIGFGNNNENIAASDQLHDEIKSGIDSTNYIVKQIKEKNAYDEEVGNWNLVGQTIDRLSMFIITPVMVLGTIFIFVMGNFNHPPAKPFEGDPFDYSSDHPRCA
UniProt P07510, 23-517: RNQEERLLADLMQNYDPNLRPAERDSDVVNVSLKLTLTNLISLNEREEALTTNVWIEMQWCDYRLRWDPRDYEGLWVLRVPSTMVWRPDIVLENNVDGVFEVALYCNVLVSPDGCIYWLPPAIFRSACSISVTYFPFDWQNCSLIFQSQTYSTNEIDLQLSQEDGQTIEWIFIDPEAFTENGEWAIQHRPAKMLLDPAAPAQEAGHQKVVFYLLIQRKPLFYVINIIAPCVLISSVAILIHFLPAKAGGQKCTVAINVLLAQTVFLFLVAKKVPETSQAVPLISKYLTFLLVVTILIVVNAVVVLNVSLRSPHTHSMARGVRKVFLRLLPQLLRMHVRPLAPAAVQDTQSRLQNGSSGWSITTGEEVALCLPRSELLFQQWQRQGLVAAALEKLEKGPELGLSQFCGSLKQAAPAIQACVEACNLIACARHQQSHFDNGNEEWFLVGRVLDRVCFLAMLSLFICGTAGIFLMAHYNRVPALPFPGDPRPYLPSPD
UniProt P11230, 24-501: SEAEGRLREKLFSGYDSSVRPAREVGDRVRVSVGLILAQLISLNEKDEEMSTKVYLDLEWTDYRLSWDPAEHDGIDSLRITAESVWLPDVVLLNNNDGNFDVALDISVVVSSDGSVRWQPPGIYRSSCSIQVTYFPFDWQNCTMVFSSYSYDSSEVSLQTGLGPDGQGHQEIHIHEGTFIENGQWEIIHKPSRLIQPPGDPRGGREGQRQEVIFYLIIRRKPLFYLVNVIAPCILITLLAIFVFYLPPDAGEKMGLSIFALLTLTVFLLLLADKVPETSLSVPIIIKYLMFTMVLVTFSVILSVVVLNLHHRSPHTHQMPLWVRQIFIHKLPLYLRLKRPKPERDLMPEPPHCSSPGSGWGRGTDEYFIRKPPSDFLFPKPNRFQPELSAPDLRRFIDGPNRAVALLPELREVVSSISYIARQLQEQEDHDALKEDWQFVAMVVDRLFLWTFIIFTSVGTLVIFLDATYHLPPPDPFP
UniProt Q07001, 22-517: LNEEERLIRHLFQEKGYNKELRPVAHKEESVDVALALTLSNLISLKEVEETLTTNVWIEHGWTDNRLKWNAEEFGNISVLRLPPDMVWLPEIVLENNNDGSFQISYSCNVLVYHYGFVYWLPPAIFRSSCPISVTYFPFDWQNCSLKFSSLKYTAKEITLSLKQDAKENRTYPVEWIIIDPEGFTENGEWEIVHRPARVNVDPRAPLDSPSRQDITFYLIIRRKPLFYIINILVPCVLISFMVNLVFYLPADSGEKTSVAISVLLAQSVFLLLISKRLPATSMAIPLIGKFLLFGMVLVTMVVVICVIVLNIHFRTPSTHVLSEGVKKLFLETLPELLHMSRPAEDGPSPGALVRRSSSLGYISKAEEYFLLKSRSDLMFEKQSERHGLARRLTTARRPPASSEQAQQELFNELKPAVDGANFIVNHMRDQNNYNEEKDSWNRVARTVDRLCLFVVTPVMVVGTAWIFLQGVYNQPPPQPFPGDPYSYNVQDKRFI

Tests used:
[1] = target: Torpedo AChR ion channel ([3H]18-MC site) (Tetronarce californica, UniProt P02710+P02712+P02714+P02718); assay type: binding
[2] = target: Torpedo AChR (Tetronarce californica, UniProt P02710+P02712+P02714+P02718); details: read-out: apparent EC50 (50% increase of [3H]cytisine binding); 7.7 nM [3H]cytisine; resting but activatable state
[3] = target: human fetal muscle AChR (α1β1γδ) in TE671 cells (Homo sapiens, UniProt P02708+P07510+P11230+Q07001); assay type: cell-based; details: read-out: IC50 (inhibition of agonist-activated AChR ion channel flux)

Substance: ibogaine
- Ki ([1]; desensitized/CCh-bound state): 9.3 ± 0.6 µM
- Ki ([1]; resting/α-BTx-bound state): 11 ± 1 µM
- EC50 [2]: 28 ± 10 µM
- IC50 [3]: 17 ± 3 µM
